# Antibody variant affinities, Ab-14 light chain, assay B

Data: MIT Lincoln Laboratory AlphaSeq set, Li et al. 2023, doi:10.1038/s41467-023-39022-2, as distributed in FLAb.

All variants were tested on one target, the spike HR2 peptide PDVDLGDISGINAS (SARS-CoV-2).

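Designed CDR sequences, proposed from the first random library and measured here. Their group label is 14L_Ctrl (Ctrl: baseline library sampled from a position-specific scoring matrix, with some repeated check sequences). The assay is AlphaSeq: two haploid yeast populations carry antibody and antigen on their surface. Pairs that bind mate more often; barcode pairs of the diploids are counted by sequencing. Scores were corrected for input abundance and mapped to Kd with protein pairs of known affinity run in the same pool. The assay was run in six technical replicates.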

Parent scFv Ab-14: VH joined to VL by a (GGGGS)3 linker. Changes lie in the light chain CDRs alone.
VH: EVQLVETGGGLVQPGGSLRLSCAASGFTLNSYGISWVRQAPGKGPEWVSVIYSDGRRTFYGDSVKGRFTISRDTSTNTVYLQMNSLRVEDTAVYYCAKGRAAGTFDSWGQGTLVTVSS
VL: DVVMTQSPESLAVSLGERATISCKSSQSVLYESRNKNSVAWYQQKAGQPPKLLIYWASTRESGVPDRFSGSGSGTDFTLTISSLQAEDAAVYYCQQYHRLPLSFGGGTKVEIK

Each variant is given by its three light chain CDRs, as the data file delimits them; those of the parent are KSSQSVLYESRNKNSVA, WASTRES, QQYHRLPLS. Scale: log10 of Kd in nM, estimated from mating counts; low values are strong binders. Averages over replicates are reported, and they cover detected replicates only. An entry "ND" has no value in the source: the pair was not observed among the diploids in that replicate. This suggests poor binding but is not conclusive.

| CDR-L1 | CDR-L2 | CDR-L3 | log10 Kd (nM) by replicate | mean log10 Kd (nM) | empty controls |
|---|---|---|---|---|---|
| KSSQSVHYESRNKNSVA | WASTRES | QQYFRLPLS | 1.92 0.44 1.57 2.64 3.14 2.35 | 2.01 | 0/18 |
| KHSQSVLYESRNKNSVA | WASTRES | QQAHRLPLS | ND ND ND ND ND ND | ND | 0/18 |
| KSSQSVLMESNNKNSVA | EATTRES | QQYHRLPLS | 0.24 0.17 0.10 0.10 -0.04 0.28 | 0.14 | 0/18 |
| KSSPSSLAESGNKNSIA | WASTRES | QQYHRLPLS | 1.30 1.02 1.25 1.13 1.35 1.36 | 1.23 | 0/18 |
| WFSQSVLYESRNKNSVA | WASTRES | QQYHRLPLS | ND ND 2.09 ND ND 2.90 | 2.50 | 0/18 |
| KFSQSGLYESRNTNSVA | WASTRTS | QQYHRLPLS | 1.18 1.26 0.61 1.62 0.98 0.96 | 1.10 | 4/18 (1.66) |
| KMSSSVLDESRNCNSIA | WASTRES | QQYHRLPLS | 1.20 1.28 1.25 1.15 1.09 1.09 | 1.18 | 2/18 (1.88) |
| KSSQMVLYESRNKNSVA | WATTRES | QQYHRLPLS | ND ND ND ND ND ND | ND | 0/18 |
| KSSQSVLYESRNKNWVA | YASTRES | QQYHRLPLS | ND ND ND ND ND ND | ND | 0/18 |
| KMSQAVLYESRNKNSVA | WASTRES | QQYHRFPLS | ND 1.45 0.91 1.36 1.91 0.89 | 1.30 | 0/18 |
| KSSQSVLVESVNGTSVA | WASTRES | QQYHRLPLS | ND ND ND ND ND ND | ND | 0/18 |
| KSSQSVLYESRNKNSVA | WASTRES | QQYHQLPLS | 2.70 2.48 2.55 1.69 2.06 2.39 | 2.31 | 2/18 (3.72) |
| KCSQSVLYESRNKSSVA | WASTRES | QQYHRLPLS | ND ND ND ND ND 2.00 | 2.00 | 0/18 |
| KSSQSVLYENRNTNSVA | EASTRES | QAYHRLPLS | 1.69 0.36 1.18 1.55 1.65 1.45 | 1.31 | 0/18 |
| KSSQSVLYVSRNKNSVA | WASTRES | QQYHRLPLS | ND ND ND ND ND ND | ND | 0/18 |
| KSSQEQLPESRMKNSVA | AASTRES | QQYHRLPLS | 0.46 0.11 0.45 0.38 0.08 0.20 | 0.28 | 0/18 |
| KMSQSFLYESRNKNSVA | WASTPES | QVYHRLPLS | ND ND ND ND 2.40 ND | 2.40 | 0/18 |
| KMSQSPLYESRNVNSVA | DASHRES | QQYHRLPLS | -0.01 -0.22 -0.44 -0.02 -0.31 0.08 | -0.15 | 1/18 (2.19) |
| KSSWSVTYESRNDNSVA | WASTRES | QQYHRLPLS | ND ND ND ND ND ND | ND | 0/18 |
| KSSQSVLYEDSNKNSVA | WASTRES | QQYQRLPLL | ND 1.42 1.28 2.70 ND ND | 1.80 | 0/18 |
| KSSQSVLYESRNKNSVA | WASTRES | AQYIRLPLS | ND ND ND ND ND ND | ND | 0/18 |
| KSSQDVLYESRNRNSVA | WDSTRES | QQYHRLPLS | ND ND ND ND ND ND | ND | 0/18 |
| KSSQSTLEESVNKNSVA | HASTRES | QQYHRLPLS | 0.39 0.28 0.38 0.24 0.32 0.61 | 0.37 | 1/18 (2.67) |
| HSSQSVLYESRNKNSVA | WASTRED | QQYGRLPLS | 1.11 0.80 1.07 0.66 2.08 0.85 | 1.09 | 0/18 |
| KSSQSVLYEDRNCNSVA | WASTRES | QQYHWVPLE | ND ND ND ND ND ND | ND | 0/18 |
| KSSQSHVYESRNKNSVA | WASTRES | QYYHRLPLS | ND ND ND ND ND ND | ND | 0/18 |
| KSSQSVLYEGRNKASVA | SASTRES | QQYHRLPLS | 0.86 0.91 0.63 0.50 0.52 0.74 | 0.69 | 1/18 (1.95) |
| KSSQSVLYESDNKNSVA | WATTRES | QQYHRLPLS | 1.53 1.31 1.15 1.19 1.20 0.98 | 1.22 | 0/18 |
| KSSQSVPYESRNVNSVA | KASTRES | QQYHRLPLS | 0.30 0.38 0.15 0.04 0.31 0.41 | 0.27 | 2/18 (3.07) |
| KSSQSVIYESRNKNSVA | WASTREE | QQYARLPLS | ND ND ND ND 2.43 ND | 2.43 | 1/18 (1.39) |
| VSSQSNLYESNNKNSVA | NASTRES | QQYHRLPLS | 0.23 -0.16 -0.30 -0.31 -0.09 0.00 | -0.10 | 0/18 |
| MSQQSVLIESRNKKSVA | WASTRED | QQAHRLPLS | ND ND ND ND ND ND | ND | 0/18 |
| KSSWSVLYESRNKNSVA | WASTRES | QSEHRLPLS | ND ND ND ND ND ND | ND | 0/18 |
| KSSQPVMYESRNKNSVA | WASTRES | QQYHRLPLS | ND ND 2.30 ND 2.63 2.79 | 2.58 | 1/18 (2.18) |
| KSSQSVLYESRNKNSVA | SASTRES | QQYHRLELL | 1.79 1.22 1.34 0.64 0.56 1.34 | 1.15 | 0/18 |
| KSSQSVLYESRNDSSVA | WASTRES | QQYHRLPLS | 3.24 3.03 1.47 ND 2.31 2.55 | 2.52 | 0/18 |
| KSSQSVLYESDNKNSVA | NASTRES | QQYHRLPLP | ND 2.40 ND 2.47 ND ND | 2.43 | 0/18 |
| KSSQSVLTESRNKNSVA | WASTRES | QQYHRLPLI | ND 2.44 ND ND 2.59 2.96 | 2.66 | 1/18 (3.19) |
| KVSQSVLYESRNKNSVA | WASCRES | QQYHRLPLS | 2.05 1.49 0.70 1.49 1.20 1.95 | 1.48 | 0/18 |
| KSSQSVLYEMGNKNSVA | WASTRES | QQYHRLPLS | 2.18 2.01 1.95 1.82 2.54 2.19 | 2.11 | 2/18 (2.72) |
| KSSQSVGYESRNKNSVA | WASTREV | QQYARLPLF | 1.29 1.32 1.20 2.03 1.36 1.99 | 1.53 | 0/18 |
| KSSPSVLYESFNKNSVA | AASTRES | QQYHRLPLS | ND ND ND ND ND ND | ND | 0/18 |
| KYSQSVLYNSRNKNSVA | WASTRES | QQYHRLPLI | ND ND ND 1.02 ND ND | 1.02 | 1/18 (2.66) |
| KSSQSVLYESRNKNSVA | WGSTRES | QQYIRLPLS | 1.70 1.99 1.29 2.01 1.90 1.41 | 1.72 | 0/18 |
| KSSQSVLAESRNKNSVA | WASTRES | QMHHRLPLS | ND 2.37 ND ND ND ND | 2.37 | 0/18 |
| KSSQSVLYESINANSVA | WASTRES | QQYHRLPLS | 0.47 1.26 0.88 1.04 1.58 1.22 | 1.08 | 1/18 (1.97) |

Picked from the list: the 5 lowest averages where every replicate gave a value.

| CDR-L1 | CDR-L2 | CDR-L3 | log10 Kd (nM) by replicate | mean log10 Kd (nM) | empty controls |
|---|---|---|---|---|---|
| KMSQSPLYESRNVNSVA | DASHRES | QQYHRLPLS | -0.01 -0.22 -0.44 -0.02 -0.31 0.08 | -0.15 | 1/18 (2.19) |
| VSSQSNLYESNNKNSVA | NASTRES | QQYHRLPLS | 0.23 -0.16 -0.30 -0.31 -0.09 0.00 | -0.10 | 0/18 |
| KSSQSVLMESNNKNSVA | EATTRES | QQYHRLPLS | 0.24 0.17 0.10 0.10 -0.04 0.28 | 0.14 | 0/18 |
| KSSQSVPYESRNVNSVA | KASTRES | QQYHRLPLS | 0.30 0.38 0.15 0.04 0.31 0.41 | 0.27 | 2/18 (3.07) |
| KSSQEQLPESRMKNSVA | AASTRES | QQYHRLPLS | 0.46 0.11 0.45 0.38 0.08 0.20 | 0.28 | 0/18 |

A sequence measured in both rounds can read differently, since the two assays cover different ranges. The authors averaged sequences with at least three values out of six and counted those with two or fewer as poor binders. Of ten entries with the parent sequence, four were seen in most replicates (averages 0.34 to 2.37), three in one and three in none, so single entries are noisy. As a blank, each scFv also met three strains without target: over all light chain designs, 4% of these pairings were detected, typically at 2.64 and seldom below 1.59. For each scFv, signals with the empty controls are counted beside the result, with their mean in brackets.